Results: PubChem BioAssay AID995 (National Center for Advancing Translational Sciences (NCATS), 2007)
The list shows a part of the results, in another mix than the full data. Some of these compounds have results that are not shown, active ones among them. Records with an inconclusive call do not appear. Calls of active or inactive are those of the source. The call rests on the fitted dose curve; in most records, active means well fitted inhibition curve with a large enough effect; inconclusive means small, poorly fitted or top-dose-only effect; inactive means no such curve, though single readings can be large or run the other way.
On the % scale 0 is the no-effect control and ±100 the full control effect.

Assay: qHTS Assay for Inhibitors of the ERK Signaling Pathway using a Homogeneous Screening Assay; further: nearly all actives have a fitted effect of over 55% in size
Conditions: HEK293-V1b, vasopressin-stimulated pERK AlphaScreen; at 11.5 µM unless noted
For C=C(C)C#C[C@@](O)(C(=O)OC1CCN(C)CC1)c1ccccc1, the activity, negative = inhibition was inactive: 3%.
In the case of CN1CC[C@H](OC(=O)[C@](O)(c2ccccc2)C2CCCC2)C1, the activity, negative = inhibition was inactive: -11.4%.
In the case of CN1CCC[C@H](OC(=O)[C@](O)(c2ccccc2)C2CCCC2)C1, the activity, negative = inhibition was inactive: -15.5%.
With CN(C)c1cccc(C(=O)NCC2(N(C)C)CCCCC2)c1 the activity, negative = inhibition was inactive: -6.74% [at 57.5 µM].
